Assays:
[1] = target: T1, CRF2R (Homo sapiens, UniProt Q13324); assay: CRF2R agonist activity (EC50 and Emax), called comparative CRF binding; format: cell-based; conditions: CRF2R EC50 (nM), CRF2R
T1 sequence (Q13324 1-411): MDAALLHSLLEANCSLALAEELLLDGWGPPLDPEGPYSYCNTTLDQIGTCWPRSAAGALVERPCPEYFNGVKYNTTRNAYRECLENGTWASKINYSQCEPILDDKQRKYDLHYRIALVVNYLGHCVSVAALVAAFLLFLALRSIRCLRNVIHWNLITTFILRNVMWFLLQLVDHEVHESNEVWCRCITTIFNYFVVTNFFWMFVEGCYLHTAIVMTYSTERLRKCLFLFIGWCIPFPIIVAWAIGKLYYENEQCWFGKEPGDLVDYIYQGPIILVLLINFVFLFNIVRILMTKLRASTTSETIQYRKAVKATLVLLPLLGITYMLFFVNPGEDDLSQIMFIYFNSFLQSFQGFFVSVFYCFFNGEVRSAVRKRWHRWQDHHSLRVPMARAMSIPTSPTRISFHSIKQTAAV
How it was run: (§1)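 Agonism measured through CRE-linked reporter expression or lysate cAMP after peptide treatment of CRF1R- or CRF2R-expressing cells, compared against vehicle-treated cells; background from a co-expressed non-target CRFR is subtracted.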

[2] = target: T2, CRF1R (Homo sapiens, UniProt P34998); assay: CRF1R agonist activity (EC50 and Emax), called comparative CRF binding; format: cell-based; conditions: CRF1R EC50 (nM), CRF1R
T2 sequence (P34998 24-415): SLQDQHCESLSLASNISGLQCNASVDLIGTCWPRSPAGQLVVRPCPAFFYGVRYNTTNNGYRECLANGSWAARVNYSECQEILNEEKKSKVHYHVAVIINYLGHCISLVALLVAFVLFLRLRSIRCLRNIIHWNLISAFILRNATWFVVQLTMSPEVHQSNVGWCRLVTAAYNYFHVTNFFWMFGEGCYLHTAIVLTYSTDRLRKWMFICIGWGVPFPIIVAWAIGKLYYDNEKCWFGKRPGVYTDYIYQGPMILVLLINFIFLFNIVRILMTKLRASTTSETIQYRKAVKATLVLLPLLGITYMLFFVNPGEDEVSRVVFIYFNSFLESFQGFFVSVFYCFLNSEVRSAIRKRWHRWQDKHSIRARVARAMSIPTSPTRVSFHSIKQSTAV
How it was run: as §1

Row | Structure (SMILES) | EC50 [1] | EC50 [2]
1 | CC[C@H](C)[C@H](NC(=O)[C@@H](NC(=O)[C@H](CC(=O)O)NC(=O)[C@H](CC(C)C)NC(=O)[C@H](CC(C)C)NC(=O)[C@H](CC(C)C)NC(=O)[C@H](CCCNC(=N)N)NC(=O)[C@H](CC(N)=O)NC(=O)[C@H](CC(N)=O)NC(=O)[C@H](C)NC(=O)[C@H](C)NC(=O)[C@H](CCC(N)=O)NC(=O)[C@H](CCC(N)=O)NC(=O)[C@H](CCCCN)NC(=O)[C@H](CCC(=O)O)NC(=O)[C@H](CCCCN)NC(=O)[C@H](CCC(=O)O)NC(=O)[C@H](CCC(N)=O)NC(=O)[C@H](CCCCN)NC(=O)[C@H](CCC(=O)O)NC(=O)[C@@H](NC(=O)[C@H](CCC(=O)O)NC(=O)[C@@H](NC(=O)[C@H](CCSC)NC(=O)[C@H](CCCCN)NC(=O)[C@H](CCCNC(=N)N)NC(=O)[C@H](CC(C)C)NC(=O)[C@H](CC(C)C)NC(=O)[C@H](Cc1c[nH]c2ccccc12)NC(=O)[C@H](Cc1ccccc1)NC(=O)[C@@H]1CCCN1C(=O)[C@H](CC(C)C)NC(=O)[C@H](CC(=O)O)NC(=O)[C@@H](NC(=O)[C@H](CO)NC(=O)[C@@H](NC(=O)[C@@H]1CCCN1C(=O)[C@@H]1CCCN1C(=O)CNC(=O)[C@@H]1CCC(=O)N1)[C@@H](C)CC)[C@@H](C)CC)[C@@H](C)CC)[C@@H](C)CC)[C@@H](C)O)C(N)=O [compound 217] | 4.7 nM | 94.7 nM
2 | CC[C@H](C)[C@H](NC(=O)[C@@H](NC(=O)[C@H](CC(=O)O)NC(=O)[C@H](CC(C)C)NC(=O)[C@H](CC(C)C)NC(=O)[C@H](CC(C)C)NC(=O)[C@H](CCCNC(=N)N)NC(=O)[C@H](CC(N)=O)NC(=O)[C@H](CC(N)=O)NC(=O)[C@H](C)NC(=O)[C@H](C)NC(=O)[C@H](CCC(N)=O)NC(=O)[C@H](CCC(N)=O)NC(=O)[C@H](CCCCN)NC(=O)[C@H](CCC(=O)O)NC(=O)[C@H](CCCCN)NC(=O)[C@H](CCC(=O)O)NC(=O)[C@H](CCC(N)=O)NC(=O)[C@H](CCCCN)NC(=O)[C@H](CCC(=O)O)NC(=O)[C@@H](NC(=O)[C@H](CCC(=O)O)NC(=O)[C@@H](NC(=O)[C@H](CCSC)NC(=O)[C@H](CCCCN)NC(=O)[C@H](CCCNC(=N)N)NC(=O)[C@H](CC(C)C)NC(=O)[C@H](CC(C)C)NC(=O)[C@H](Cc1c[nH]c2ccccc12)NC(=O)[C@H](Cc1c[nH]c2ccccc12)NC(=O)[C@@H]1CCCN1C(=O)[C@H](CC(C)C)NC(=O)[C@H](CC(=O)O)NC(=O)[C@@H](NC(=O)[C@H](CO)NC(=O)[C@@H](NC(=O)[C@@H]1CCCN1C(=O)[C@@H]1CCCN1C(=O)CNC(=O)[C@@H]1CCC(=O)N1)[C@@H](C)CC)[C@@H](C)CC)[C@@H](C)CC)[C@@H](C)CC)[C@@H](C)O)C(N)=O [compound 216] | 9.9 nM | 49.8 nM
3 | CC[C@H](C)[C@H](NC(=O)[C@@H](NC(=O)[C@H](CC(=O)O)NC(=O)[C@H](CC(C)C)NC(=O)[C@H](CC(C)C)NC(=O)[C@H](CC(C)C)NC(=O)[C@H](CCCNC(=N)N)NC(=O)[C@H](CC(N)=O)NC(=O)[C@H](CC(N)=O)NC(=O)[C@H](C)NC(=O)[C@H](C)NC(=O)[C@H](CCC(N)=O)NC(=O)[C@H](CCC(N)=O)NC(=O)[C@H](CCCCN)NC(=O)[C@H](CCC(=O)O)NC(=O)[C@H](CCCCN)NC(=O)[C@H](CCC(=O)O)NC(=O)[C@H](CCC(N)=O)NC(=O)[C@H](CCCCN)NC(=O)[C@H](CCC(=O)O)NC(=O)[C@@H](NC(=O)[C@H](CCC(=O)O)NC(=O)[C@@H](NC(=O)[C@H](CCSC)NC(=O)[C@H](CCCCN)NC(=O)[C@H](CCCNC(=N)N)NC(=O)[C@H](CC(C)C)NC(=O)[C@H](CC(C)C)NC(=O)[C@@H](NC(=O)[C@H](CC(C)C)NC(=O)[C@@H]1CCCN1C(=O)[C@H](CC(C)C)NC(=O)[C@H](CC(=O)O)NC(=O)[C@@H](NC(=O)[C@H](CO)NC(=O)[C@@H](NC(=O)[C@@H]1CCCN1C(=O)[C@@H]1CCCN1C(=O)CNC(=O)[C@@H]1CCC(=O)N1)[C@@H](C)CC)[C@@H](C)CC)[C@@H](C)CC)[C@@H](C)CC)[C@@H](C)CC)[C@@H](C)O)C(N)=O [compound 194] | 5 nM | 106 nM
4 | CC[C@H](C)[C@H](NC(=O)[C@@H](NC(=O)[C@H](CC(=O)O)NC(=O)[C@H](CC(C)C)NC(=O)[C@H](CC(C)C)NC(=O)[C@H](CC(C)C)NC(=O)[C@H](CCCNC(=N)N)NC(=O)[C@H](CC(N)=O)NC(=O)[C@H](CC(N)=O)NC(=O)[C@H](C)NC(=O)[C@H](C)NC(=O)[C@H](CCC(N)=O)NC(=O)[C@H](CCC(N)=O)NC(=O)[C@H](CCCCN)NC(=O)[C@H](CCC(=O)O)NC(=O)[C@H](CCCCN)NC(=O)[C@H](CCC(=O)O)NC(=O)[C@H](CCC(N)=O)NC(=O)[C@H](CCCCN)NC(=O)[C@H](CCC(=O)O)NC(=O)[C@@H](NC(=O)[C@H](CCC(=O)O)NC(=O)[C@@H](NC(=O)[C@H](CCSC)NC(=O)[C@H](CCCCN)NC(=O)[C@H](CCCNC(=N)N)NC(=O)[C@H](CC(C)C)NC(=O)[C@H](CC(C)C)NC(=O)[C@H](Cc1ccc(O)cc1)NC(=O)[C@H](CCC(=O)O)NC(=O)[C@@H]1CCCN1C(=O)[C@H](CC(C)C)NC(=O)[C@H](CC(=O)O)NC(=O)[C@@H](NC(=O)[C@H](CO)NC(=O)[C@@H](NC(=O)[C@@H]1CCCN1C(=O)[C@@H]1CCCN1C(=O)CNC(=O)[C@@H]1CCC(=O)N1)[C@@H](C)CC)[C@@H](C)CC)[C@@H](C)CC)[C@@H](C)CC)[C@@H](C)O)C(N)=O [compound 48] | ≥ 100 nM | ≥ 1000 nM
5 | CC[C@H](C)[C@H](NC(=O)[C@H](CCCNC(=N)N)NC(=O)[C@H](C)NC(=O)[C@H](CC(C)C)NC(=O)[C@H](CC(C)C)NC(=O)[C@H](CCCNC(=N)N)NC(=O)[C@H](C)NC(=O)[C@H](CC(N)=O)NC(=O)[C@H](CC(N)=O)NC(=O)[C@H](C)NC(=O)[C@H](C)NC(=O)[C@H](CCC(N)=O)NC(=O)[C@H](CCC(N)=O)NC(=O)[C@H](CCCCN)NC(=O)[C@H](CCC(=O)O)NC(=O)[C@H](CCCCN)NC(=O)[C@H](CCC(=O)O)NC(=O)[C@H](CCC(N)=O)NC(=O)[C@H](CCCCN)NC(=O)[C@H](CCC(=O)O)NC(=O)[C@@H](NC(=O)[C@H](CCC(=O)O)NC(=O)[C@@H](NC(=O)[C@H](CCSC)NC(=O)[C@H](CCCCN)NC(=O)[C@H](CCCNC(=N)N)NC(=O)[C@H](CC(C)C)NC(=O)[C@H](CC(C)C)NC(=O)[C@H](Cc1c[nH]c2ccccc12)NC(=O)[C@@H](NC(=O)[C@@H]1CCCN1C(=O)[C@H](CC(C)C)NC(=O)[C@H](CC(=O)O)NC(=O)[C@@H](NC(=O)[C@H](CO)NC(=O)[C@@H](NC(=O)[C@@H]1CCCN1C(=O)[C@@H]1CCCN1C(=O)CNC(=O)[C@@H]1CCC(=O)N1)[C@@H](C)CC)[C@@H](C)CC)[C@@H](C)O)[C@@H](C)CC)[C@@H](C)CC)C(N)=O [compound 292] | ≥ 100 nM | ≥ 1000 nM
6 | CC[C@H](C)[C@H](NC(=O)[C@H](CCCNC(=N)N)NC(=O)[C@H](C)NC(=O)[C@H](CC(C)C)NC(=O)[C@H](CC(C)C)NC(=O)[C@H](CCCNC(=N)N)NC(=O)[C@H](C)NC(=O)[C@H](CC(N)=O)NC(=O)[C@H](CC(N)=O)NC(=O)[C@H](C)NC(=O)[C@H](C)NC(=O)[C@H](CCC(N)=O)NC(=O)[C@H](CCC(N)=O)NC(=O)[C@H](CCCCN)NC(=O)[C@H](CCC(=O)O)NC(=O)[C@H](CCCCN)NC(=O)[C@H](CCC(=O)O)NC(=O)[C@H](CCC(N)=O)NC(=O)[C@H](CCCCN)NC(=O)[C@H](CCC(=O)O)NC(=O)[C@@H](NC(=O)[C@H](CCC(=O)O)NC(=O)[C@@H](NC(=O)[C@@H](NC(=O)[C@H](CCCCN)NC(=O)[C@H](CCCNC(=N)N)NC(=O)[C@H](CC(C)C)NC(=O)[C@H](CC(C)C)NC(=O)[C@@H](NC(=O)[C@H](CCC(N)=O)NC(=O)[C@@H]1CCCN1C(=O)[C@H](CC(C)C)NC(=O)[C@H](CC(=O)O)NC(=O)[C@@H](NC(=O)[C@H](CO)NC(=O)[C@@H](NC(=O)[C@@H]1CCCN1C(=O)[C@@H]1CCCN1C(=O)CNC(=O)[C@@H]1CCC(=O)N1)[C@@H](C)CC)[C@@H](C)CC)[C@@H](C)CC)C(C)C)[C@@H](C)CC)[C@@H](C)CC)C(N)=O [compound 294] | ≥ 100 nM | ≥ 1000 nM

Reference: patent publication US7632933B2, “Corticotropin releasing factor 2 receptor agonists” (priority 2002, dated 2009)
